Source: patent publication EP4847495A1, “BENZOHETEROCYCLIC COMPOUND AND USE THEREOF” (dated 2026)
Blank lines part the entries; values can stand above or below the compound they belong to.

Chains of the proteins cited; added tags and fusions are not shown. Residues count along the entry.
UniProt P05067, 672-713 limits assumed: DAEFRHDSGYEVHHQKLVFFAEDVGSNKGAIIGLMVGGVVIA

How the values were obtained:
Aβ42 fibril = experiment: SPR in vitro Aβ binding affinity (Biacore 8K); details: read-out: KD Aβ42 fibril, CM5 chip, 25°C, 1: 1 binding model
Aβ42 oligomer = experiment: SPR in vitro Aβ binding affinity (Biacore 8K); details: read-out: KD Aβ42 oligomer, CM5 chip, 25°C, 1: 1 binding model
Aβ42 monomer = Aβ42 monomer (Homo sapiens, UniProt P05067); experiment: SPR in vitro Aβ binding affinity (Biacore 8K); details: read-out: KD Aβ42 monomer, CM5 chip, 25°C, 1: 1 binding model
Aβ plaques = experiment: Aβ immunofluorescence staining assay of brain sections after treatment; details: 7 months, daily oral dose 2 mg/kg
APP/PS1 mice = experiment: Morris water maze test; details: daily oral dose 2 mg/kg
activated microglia = experiment: Immunostaining assay of microglia (Iba1) after treatment; details: daily oral dose 2 mg/kg; result in words
Aβ [1] = experiment: Autoradiography on brain sections of transgenic AD mice; details: blocker 10 µM in incubation solution (Block / Self-Block group)
Aβ [2] = experiment: PET imaging comparison of [18F] compound 1 and [18F]Flutemetamol; details: about 10 MBq i.v., static PET 45 min after injection, 15 min

Kd (Aβ42 monomer): 3.33 µM
SMILES: CNc1ccc(-c2cc3cc(O)ccc3o2)c(F)n1
Kd (Aβ42 fibril): 3.28 µM
Kd (Aβ42 oligomer): 5.82 µM

SMILES: COc1cc2c(cc1OC)C(=O)C(CC1CCN(Cc3ccccc3)CC1)C2 (stereo not drawn)
Number of Aβ plaques per unit area (mm^2) in the brain, Mean value (Aβ plaques; 6-month-old APP/PS1 mice, AD control 200.4): 200.6
number of Aβ plaques (Aβ plaques; result in words): no significant changes
Escape latency, Mean value (APP/PS1 mice; 6-month-old APP/PS1 mice, 7 months, AD control 41.4): 46.6 S
long-term memory ability (APP/PS1 mice; compared with solvent control group, result in words): decreased
area proportion of the activated microglia in the brain (activated microglia): significant reduction

SMILES: CNc1ccc(-c2nc3ccc(O)cc3s2)cc1F
Kd (Aβ42 fibril): 2.24 µM
Kd (Aβ42 oligomer): 0.731 µM
blocking of compound 2 binding signals (autoradiography) (Aβ [1]): could be blocked

SMILES: CNc1ccc(-c2nc3ccc(O)cc3s2)cc1[18F]
SUVR (reference tissue cerebellum) Cortex (Aβ [2]; APP/PS1 mice): 1.12
SUVR (reference tissue cerebellum) Hippocampus (Aβ [2]; APP/PS1 mice): 0.97
SUVR (reference tissue cerebellum) Cortex (Aβ [2]; Wild mice): 1.03
SUVR (reference tissue cerebellum) Hippocampus (Aβ [2]; Wild mice): 0.85
